The record followed here is ChEMBL document CHEMBL1133090, “3D-QSAR CoMFA on cyclin-dependent kinase inhibitors” (J Med Chem, 2000).

Protein sequences, listed by entry. Tags and fused reporters are not part of them.
UniProt P06493, whole entry: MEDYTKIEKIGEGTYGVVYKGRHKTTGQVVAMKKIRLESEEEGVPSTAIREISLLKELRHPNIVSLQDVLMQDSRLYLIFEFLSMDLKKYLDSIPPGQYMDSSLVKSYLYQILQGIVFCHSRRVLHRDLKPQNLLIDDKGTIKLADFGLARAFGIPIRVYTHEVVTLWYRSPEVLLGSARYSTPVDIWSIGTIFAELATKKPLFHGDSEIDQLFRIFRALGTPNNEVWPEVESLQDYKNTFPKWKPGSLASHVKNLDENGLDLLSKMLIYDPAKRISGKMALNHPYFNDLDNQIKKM

The target in the assay is Cyclin-dependent kinase 1 (Homo sapiens, UniProt P06493).

In general, IC50 refers to the concentration needed to halve the response being measured.

On to `CC(C)n1cnc2c(NC(CO)c3ccccc3)nc(N3CCC[C@@H]3CO)nc21` (stereo not given in full), for which the midpoint of inhibition, the IC50, lay at 10000 nM.
With `CC(C)n1cnc2c(NC(CO)c3ccccc3)nc(N3CCC[C@H]3CO)nc21` (stereo not given in full), half-maximal inhibition (IC50) was put at 800 nM.
For `CC(C)n1cnc2c(NCc3cc(C(F)(F)F)cc(C(F)(F)F)c3)nc(N3CCC[C@@H]3CO)nc21` the value was 1000 nM; for `CC(C)n1cnc2c(NCc3ccc(C(F)(F)F)cc3)nc(N3CCC[C@@H]3CO)nc21`, 800 nM.
`COc1ccccc1CNc1nc(N2CCC[C@@H]2CO)nc2c1ncn2C(C)C` yielded an IC50 of 1800 nM.
For `COc1cc(CNc2nc(N3CCC[C@@H]3CO)nc3c2ncn3C(C)C)cc(OC)c1` the value was 300 nM; for `CC(C)n1cnc2c(NCc3ccc4c(c3)OCO4)nc(N3CCC[C@@H]3CO)nc21`, 350 nM.
For `COc1ccc(CNc2nc(N3CCC[C@@H]3CO)nc3c2ncn3C(C)C)cc1` the value was 210 nM; for `COc1cccc(CNc2nc(N3CCC[C@@H]3CO)nc3c2ncn3C(C)C)c1`, 300 nM; for `CC(C)n1cnc2c(NCc3cccc(C(F)(F)F)c3)nc(N3CCCC3CO)nc21` (single isomer, unassigned), 700 nM.
